# Assay results: the supplement of paper PMC8728848
# This is one part of a sample in which the strongest signals are shown more often than they occur.
# Tests used:
# Test in all cases: glycan array binding signal (z-score within array); higher = stronger binding
# Conditions in all cases: glycan notation: IUPAC condensed, linker removed
# Fuc(a1-2)Gal(b1-3)GlcNAc = molecular target: Fuc(a1-2)Gal(b1-3)GlcNAc
# [1] = molecular target: Fuc(a1-2)Gal(b1-4)GlcNAc(b1-3)Gal(b1-4)GlcNAc(b1-2)Man(a1-3)[Fuc(a1-2)Gal(b1-4)GlcNAc(b1-3)Gal(b1-4)GlcNAc(b1-2)Man(a1-6)]Man(b1-4)GlcNAc(b1-4)GlcNAc
# [2] = molecular target: Fuc(a1-2)Gal(b1-4)GlcNAc(b1-3)GalNAc
# [3] = molecular target: Fuc(a1-2)Gal(b1-4)GlcNAc6S
# [4] = molecular target: Fuc(a1-2)[Gal(a1-3)]Gal(b1-4)GlcNAc(b1-2)Man(a1-3)[Fuc(a1-2)[Gal(a1-3)]Gal(b1-4)GlcNAc(b1-2)Man(a1-6)]Man(b1-4)GlcNAc(b1-4)[Fuc(a1-6)]GlcNAc
# [5] = molecular target: Fuc(a1-2)[Gal(a1-3)]Gal(b1-4)[Fuc(a1-3)]GlcNAc
# [6] = molecular target: Fuc(a1-2)[GalNAc(a1-3)]Gal(b1-3)GalNAc(b1-3)Gal(a1-4)Gal(b1-4)Glc
# [7] = molecular target: Fuc(a1-2)[GalNAc(a1-3)]Gal(b1-3)GlcNAc
# [8] = molecular target: Fuc(a1-3)[Gal(b1-4)]GlcNAc6S
# Gal(a1-3)Gal(b1-4)Glc = molecular target: Gal(a1-3)Gal(b1-4)Glc
# [9] = molecular target: Gal(a1-4)Gal(b1-4)GlcNAc(b1-2)Man(a1-3)[Gal(a1-4)Gal(b1-4)GlcNAc(b1-2)Man(a1-6)]Man(b1-4)GlcNAc(b1-4)GlcNAc
# Gal(b1-2)Gal = molecular target: Gal(b1-2)Gal
# [10] = molecular target: Gal(b1-3)GalNAc(b1-3)Gal(a1-4)Gal(b1-4)Glc
# [11] = molecular target: Gal(b1-3)GalNAc(b1-4)Gal(b1-4)Glc
# [12] = molecular target: Gal(b1-3)GalNAc(b1-4)[Neu5Ac(a2-3)]Gal(b1-4)Glc
# [13] = molecular target: Gal(b1-3)GlcNAc(a1-3)Gal(b1-4)GlcNAc
# [14] = molecular target: Gal(b1-3)GlcNAc(b1-3)Gal(b1-4)[Fuc(a1-3)]GlcNAc(b1-6)[Gal(b1-3)GlcNAc(b1-3)]Gal(b1-4)Glc
# Gal(b1-4)GlcNAc(b1-2)Man = molecular target: Gal(b1-4)GlcNAc(b1-2)Man
# [15] = molecular target: Gal(b1-4)GlcNAc(b1-2)Man(a1-3)[Gal(b1-4)GlcNAc(b1-2)Man(a1-6)][GlcNAc(b1-4)]Man(b1-4)GlcNAc(b1-4)[Fuc(a1-6)]GlcNAc
# [16] = molecular target: Gal(b1-4)GlcNAc(b1-2)Man(a1-6)[Man(a1-3)]Man(b1-4)GlcNAc(b1-4)GlcNAc
# [17] = molecular target: Gal(b1-4)GlcNAc(b1-3)Gal(b1-4)GlcNAc(b1-2)Man(a1-3)[Gal(b1-4)GlcNAc(b1-3)Gal(b1-4)GlcNAc(b1-2)Man(a1-6)]Man(b1-4)GlcNAc(b1-4)GlcNAc
# [18] = molecular target: Gal(b1-4)GlcNAc(b1-3)Gal(b1-4)GlcNAc(b1-2)Man(a1-3)[Gal(b1-4)GlcNAc(b1-3)Gal(b1-4)GlcNAc(b1-2)Man(a1-6)]Man(b1-4)GlcNAc(b1-4)[Fuc(a1-6)]GlcNAc
# [19] = molecular target: Gal(b1-4)GlcNAc(b1-3)Gal(b1-4)GlcNAc(b1-2)[Gal(b1-4)GlcNAc(b1-3)Gal(b1-4)GlcNAc(b1-6)]Man(a1-6)[Gal(b1-4)GlcNAc(b1-3)Gal(b1-4)GlcNAc(b1-2)Man(a1-3)]Man(b1-4)GlcNAc(b1-4)GlcNAc
# [20] = molecular target: Gal(b1-4)GlcNAc(b1-3)Gal(b1-4)GlcNAc(b1-3)Gal(b1-4)GlcNAc(b1-3)Gal(b1-4)GlcNAc(b1-3)Gal(b1-4)GlcNAc(b1-3)Gal(b1-4)GlcNAc(b1-2)Man(a1-3)[Gal(b1-4)GlcNAc(b1-3)Gal(b1-4)GlcNAc(b1-3)Gal(b1-4)GlcNAc(b1-3)Gal(b1-4)GlcNAc(b1-3)Gal(b1-4)GlcNAc(b1-3)Gal(b1-4)GlcNAc(b1-2)Man(a1-6)]Man(b1-4)GlcNAc(b1-4)GlcNAc
# [21] = molecular target: Gal(b1-4)GlcNAc(b1-3)Gal(b1-4)GlcNAc(b1-6)[Gal(b1-3)]GalNAc
# [22] = molecular target: Gal(b1-4)GlcNAc(b1-6)Gal(b1-4)GlcNAc
# Gal3S(b1-4)Glc = molecular target: Gal3S(b1-4)Glc
# [23] = molecular target: Gal3S(b1-4)[Fuc(a1-3)]Glc6S
# Gal4S6S(b1-4)GlcNAc = molecular target: Gal4S6S(b1-4)GlcNAc
# Gal6S(b1-3)GlcNAc6S = molecular target: Gal6S(b1-3)GlcNAc6S
# [24] = molecular target: GalNAc(a1-3)GalNAc(b1-3)Gal(a1-4)Gal(b1-4)Glc
# [25] = molecular target: GalNAc(b1-3)Gal(a1-6)Gal(b1-4)Glc
# [26] = molecular target: GlcNAc(b1-2)Gal(b1-3)GalNAc
# [27] = molecular target: GlcNAc(b1-2)Man(a1-3)[GlcNAc(b1-2)Man(a1-6)]Man(b1-4)GlcNAc(b1-4)[Fuc(a1-6)]GlcNAc
# [28] = molecular target: GlcNAc(b1-2)[GlcNAc(b1-6)]Man(a1-6)[GlcNAc(b1-4)][GlcNAc(b1-2)Man(a1-3)]Man(b1-4)GlcNAc(b1-4)GlcNAc
# [29] = molecular target: GlcNAc(b1-3)Gal(b1-4)GlcNAc(b1-2)Man(a1-3)[GlcNAc(b1-3)Gal(b1-4)GlcNAc(b1-2)Man(a1-6)]Man(b1-4)GlcNAc(b1-4)GlcNAc
# [30] = molecular target: GlcNAc(b1-3)Gal(b1-4)GlcNAc(b1-2)[GlcNAc(b1-3)Gal(b1-4)GlcNAc(b1-6)]Man(a1-6)[GlcNAc(b1-3)Gal(b1-4)GlcNAc(b1-2)Man(a1-3)]Man(b1-4)GlcNAc(b1-4)GlcNAc
# [31] = molecular target: GlcNAc(b1-3)Gal(b1-4)GlcNAc(b1-6)[GlcNAc(b1-3)Gal(b1-3)]GalNAc
# [32] = molecular target: GlcNAc(b1-4)Gal(b1-4)GlcNAc
# [33] = molecular target: GlcNAc(b1-4)[GlcNAc(b1-6)]GalNAc
# [34] = molecular target: GlcNAc(b1-6)Gal(b1-4)GlcNAc
# [35] = molecular target: Kdn(a2-3)Gal(b1-4)[Fuc(a1-3)]GlcNAc
# [36] = molecular target: Man(a1-2)Man(a1-3)[Man(a1-2)Man(a1-6)]Man
# [37] = molecular target: Neu5Ac(a2-3)Gal(b1-3)GlcNAc6S
# [38] = molecular target: Neu5Ac(a2-3)Gal(b1-4)GlcNAc(b1-2)Man
# [39] = molecular target: Neu5Ac(a2-3)Gal(b1-4)GlcNAc(b1-2)Man(a1-3)[GlcNAc(b1-4)][Neu5Ac(a2-3)Gal(b1-4)GlcNAc(b1-2)Man(a1-6)]Man(b1-4)GlcNAc(b1-4)GlcNAc
# [40] = molecular target: Neu5Ac(a2-3)Gal(b1-4)GlcNAc(b1-2)[Neu5Ac(a2-3)Gal(b1-4)GlcNAc(b1-6)]Man(a1-6)[Neu5Ac(a2-3)Gal(b1-4)GlcNAc(b1-2)Man(a1-3)]Man(b1-4)GlcNAc(b1-4)GlcNAc
# [41] = molecular target: Neu5Ac(a2-3)Gal(b1-4)GlcNAc(b1-3)Gal(b1-4)GlcNAc(b1-3)Gal(b1-4)GlcNAc
# [42] = molecular target: Neu5Ac(a2-3)Gal(b1-4)GlcNAc(b1-3)Gal(b1-4)GlcNAc(b1-6)[Gal(b1-3)]GalNAc
# [43] = molecular target: Neu5Ac(a2-3)Gal(b1-4)[Fuc(a1-3)]GlcNAc(b1-3)Gal(b1-4)[Fuc(a1-3)]GlcNAc(b1-3)Gal(b1-4)[Fuc(a1-3)]GlcNAc
# [44] = molecular target: Neu5Ac(a2-6)Gal(b1-4)GlcNAc(b1-2)Man(a1-3)[Gal(b1-4)GlcNAc(b1-2)Man(a1-6)]Man(b1-4)GlcNAc(b1-4)GlcNAc
# [45] = molecular target: Neu5Ac(a2-6)Gal(b1-4)GlcNAc(b1-2)Man(a1-3)[Neu5Ac(a2-6)Gal(b1-4)GlcNAc(b1-2)Man(a1-6)]Man(b1-4)GlcNAc(b1-4)[Fuc(a1-6)]GlcNAc
# [46] = molecular target: Neu5Ac(a2-6)GlcNAc(b1-4)GlcNAc
# [47] = molecular target: Neu5Ac(a2-8)Neu5Ac(a2-3)[GalNAc(b1-4)]Gal(b1-4)Glc
# [48] = molecular target: Neu5Gc(a2-3)Gal(b1-3)GlcNAc
binder,measurement,setting,value
LysM (Drosophila melanogaster) (protein) MSPILGYWKIKGLVQPTRLLLEYLEEKYEEHLYERDEGDKWRNKKFELGLEFPNLPYYIDGDVKLTQSMAIIRYIADKHNMLGGCPKERAEISMLEGAVLDIRYGVSRIAYSKDFETLKVDFLSKLPEMLKMFEDRLCHKTYLNGDHVTHPDFMLYDALDVVLYMDPMCLDAFPKLVCFKKRIEAIPQIDKYLKSSKYIAWPLQGWQATFGGGDHPPKSDLVPRGSELWMDDSEFMFNEKQSIRDSGRTLKRYGSTCCNSLRNNETLIRHIVEKTDTLQGIALKYGCTTEQIRRANRLFASDSLFLRQFLLVPVEKNSPYYPQVPGDSIAAFVARAIHRD,glycan array binding signal (z-score),Fuc(a1-2)Gal(b1-3)GlcNAc,0.084
same,glycan array binding signal (z-score),[1],0.124
same,glycan array binding signal (z-score),[2],1.48
same,glycan array binding signal (z-score),[3],0.214
same,glycan array binding signal (z-score),[4],-0.266
same,glycan array binding signal (z-score),[5],0.205
same,glycan array binding signal (z-score),[6],-0.561
same,glycan array binding signal (z-score),[7],-0.736
same,glycan array binding signal (z-score),[8],0.534
same,glycan array binding signal (z-score),Gal(a1-3)Gal(b1-4)Glc,1.95
same,glycan array binding signal (z-score),[9],1.59
same,glycan array binding signal (z-score),Gal(b1-2)Gal,1.82
same,glycan array binding signal (z-score),[10],0.834
same,glycan array binding signal (z-score),[11],-0.372
same,glycan array binding signal (z-score),[12],-0.514
same,glycan array binding signal (z-score),[13],-0.251
same,glycan array binding signal (z-score),[14],-0.827
same,glycan array binding signal (z-score),Gal(b1-4)GlcNAc(b1-2)Man,-0.115
same,glycan array binding signal (z-score),[15],-0.711
same,glycan array binding signal (z-score),[16],-0.644
same,glycan array binding signal (z-score),[17],3.71
same,glycan array binding signal (z-score),[18],0.915
same,glycan array binding signal (z-score),[19],3.79
same,glycan array binding signal (z-score),[20],0.241
same,glycan array binding signal (z-score),[21],0.494
same,glycan array binding signal (z-score),[22],-0.971
same,glycan array binding signal (z-score),Gal3S(b1-4)Glc,1
same,glycan array binding signal (z-score),[23],2.34
same,glycan array binding signal (z-score),Gal4S6S(b1-4)GlcNAc,0.152
same,glycan array binding signal (z-score),Gal6S(b1-3)GlcNAc6S,2.02
same,glycan array binding signal (z-score),[24],-0.309
same,glycan array binding signal (z-score),[25],-0.54
same,glycan array binding signal (z-score),[26],0.833
same,glycan array binding signal (z-score),[27],0.086
same,glycan array binding signal (z-score),[28],-0.805
same,glycan array binding signal (z-score),[29],1.23
same,glycan array binding signal (z-score),[30],1.87
same,glycan array binding signal (z-score),[31],-0.625
same,glycan array binding signal (z-score),[32],1.53
same,glycan array binding signal (z-score),[33],0.035
same,glycan array binding signal (z-score),[34],-0.074
same,glycan array binding signal (z-score),[35],-0.101
same,glycan array binding signal (z-score),[36],-0.391
same,glycan array binding signal (z-score),[37],-0.008
same,glycan array binding signal (z-score),[38],12.9
same,glycan array binding signal (z-score),[39],-1.12
same,glycan array binding signal (z-score),[40],2.6
same,glycan array binding signal (z-score),[41],-0.335
same,glycan array binding signal (z-score),[42],0.543
same,glycan array binding signal (z-score),[43],-0.011
same,glycan array binding signal (z-score),[44],-0.738
same,glycan array binding signal (z-score),[45],-0.548
same,glycan array binding signal (z-score),[46],0.476
same,glycan array binding signal (z-score),[47],-0.6
same,glycan array binding signal (z-score),[48],-0.137
